This test deals with peripheral opiate receptors, guinea pig ileum (GPI, predominantly μ-type of opioid receptor).

GPIrel/MVDrel data for one molecule are collected here from patent US20100093643A1 (priority 2006, published 2010).

`CN1CC[C@]23c4c5ccc(O)c4O[C@H]2[C@@H](O)C=C[C@H]3[C@H]1C5` [Morphine, reference compound]: the GPIrel/MVDrel is 107.
